{"source": "patent US12172993B2", "about": "(priority 2018, dated 2024)", "key": {"CYP2C8": {"target": "CYP2C8 (Homo sapiens (Human), UniProt P10632)", "details": "CYP450 2C8; from NDA 21-986 Pre-clinical Review; cited from earlier work"}, "ACV-R1B": {"target": "ACV-R1B (Homo sapiens (Human), UniProt P36896)", "assay": "biochemical", "details": "read-out: Residual activity (%) at 1 μM"}, "MAP4K5": {"target": "MAP4K5 (Homo sapiens (Human), UniProt Q9Y4K4)", "assay": "biochemical", "details": "read-out: Residual activity (%) at 1 μM"}, "TRKB": {"target": "TRKB (Homo sapiens (Human), UniProt Q16620)", "assay": "biochemical", "details": "read-out: Residual activity (%) at 1 μM"}, "MYLK2": {"target": "MYLK2 (Homo sapiens (Human), UniProt Q9H1R3)", "assay": "biochemical", "details": "read-out: Residual activity (%) at 1 μM"}, "RPS6KA6": {"target": "RPS6KA6 (Homo sapiens (Human), UniProt Q9UK32)", "assay": "biochemical", "details": "read-out: Residual activity (%) at 1 μM"}, "KU812 tumours": {"system": "KU812 tumours", "details": "50 mg/kg/day for 5 days, large KU812 tumours; cited from earlier work"}, "p38-alpha": {"target": "p38-alpha (Homo sapiens (Human), UniProt Q16539)", "assay": "biochemical", "details": "read-out: Residual activity (%) at 1 μM"}, "MC38 cells": {"system": "MC38 cells", "assay": "cells", "details": "Mus musculus, MC-38, 72 h, read-out: MC38 IC50 (nM at 100 ng/mL TNF)"}, "[1]": {"system": "immune cells present in the tumour microenvironment", "details": "mouse, in vivo"}, "[2]": {"details": "in vivo; cited from earlier work"}, "TBK1": {"target": "TBK1 (Homo sapiens (Human), UniProt Q9UHD2)", "assay": "biochemical", "details": "read-out: Residual activity (%) at 1 μM"}, "EPH-A8": {"target": "EPH-A8 (Homo sapiens (Human), UniProt P29322)", "assay": "biochemical", "details": "read-out: Residual activity (%) at 1 μM"}, "EPH-B2": {"target": "EPH-B2 (Homo sapiens (Human), UniProt P29323)", "assay": "biochemical", "details": "read-out: Residual activity (%) at 1 μM"}, "WNK2": {"target": "WNK2 (Homo sapiens (Human), UniProt Q9Y3S1)", "assay": "biochemical", "details": "read-out: Residual activity (%) at 1 μM"}, "EPH-B3": {"target": "EPH-B3 (Homo sapiens (Human), UniProt P54753)", "assay": "biochemical", "details": "read-out: Residual activity (%) at 1 μM"}, "EPH-A6 [3]": {"target": "T1, EPH-A6 (Homo sapiens (Human), UniProt Q9UF33)", "assay": "biochemical", "details": "read-out: Residual activity (%) at 1 μM"}, "BRAF": {"target": "BRAF (Homo sapiens (Human), UniProt P15056)", "assay": "biochemical", "details": "read-out: Residual activity (%) at 1 μM, BRAF"}, "EPH-A3": {"target": "EPH-A3 (Homo sapiens (Human), UniProt P29320)", "assay": "biochemical", "details": "read-out: Residual activity (%) at 1 μM"}, "FLT3 [4]": {"target": "T2, FLT3 (Homo sapiens (Human), UniProt P36888)", "assay": "biochemical", "details": "read-out: Residual activity (%) at 1 μM"}, "NIK": {"target": "NIK (Homo sapiens (Human), UniProt Q99558)", "assay": "biochemical", "details": "read-out: Residual activity (%) at 1 μM"}, "ACV-R1": {"target": "ACV-R1 (Homo sapiens (Human), UniProt Q04771)", "assay": "biochemical", "details": "read-out: Residual activity (%) at 1 μM"}, "MST4": {"target": "MST4 (Homo sapiens (Human), UniProt Q9P289)", "assay": "biochemical", "details": "read-out: Residual activity (%) at 1 μM"}, "TGFB-R1": {"target": "TGFB-R1 (Homo sapiens (Human), UniProt P36897)", "assay": "biochemical", "details": "read-out: Residual activity (%) at 1 μM"}, "MAP3K11 [5]": {"target": "T3, MAP3K11 (Homo sapiens (Human), UniProt Q16584)"}, "EPH-A1": {"target": "EPH-A1 (Homo sapiens (Human), UniProt P21709)", "assay": "biochemical", "details": "read-out: Residual activity (%) at 1 μM"}, "FGF-R2": {"target": "FGF-R2 (Homo sapiens (Human), UniProt P21802)", "assay": "biochemical", "details": "read-out: Residual activity (%) at 1 μM"}, "EPH-A2": {"target": "EPH-A2 (Homo sapiens (Human), UniProt P29317)", "assay": "biochemical", "details": "read-out: Residual activity (%) at 1 μM"}, "p38-beta [6]": {"target": "T4, p38-beta (Homo sapiens (Human), UniProt Q15759)", "assay": "biochemical", "details": "read-out: Residual activity (%) at 1 μM"}, "EPH-B1": {"target": "EPH-B1 (Homo sapiens (Human), UniProt P54762)", "assay": "biochemical", "details": "read-out: Residual activity (%) at 1 μM"}, "p38-beta [7]": {"target": "T4, p38-beta"}, "NEK11 [8]": {"target": "T5, NEK11 (Homo sapiens (Human), UniProt Q8NG66)"}, "PDGFR-beta": {"target": "PDGFR-beta (Homo sapiens (Human), UniProt P09619)", "assay": "biochemical", "details": "read-out: Residual activity (%) at 1 μM"}, "EPH-A5": {"target": "EPH-A5 (Homo sapiens (Human), UniProt P54756)", "assay": "biochemical", "details": "read-out: Residual activity (%) at 1 μM"}, "BMPR1A": {"target": "BMPR1A (Homo sapiens (Human), UniProt P36894)", "assay": "biochemical", "details": "read-out: Residual activity (%) at 1 μM"}, "EPH-A4": {"target": "EPH-A4 (Homo sapiens (Human), UniProt P54764)", "assay": "biochemical", "details": "read-out: Residual activity (%) at 1 μM"}, "ACV-R2B": {"target": "ACV-R2B (Homo sapiens (Human), UniProt Q13705)", "assay": "biochemical", "details": "read-out: Residual activity (%) at 1 μM"}, "NEK11 [9]": {"target": "T5, NEK11", "assay": "biochemical", "details": "read-out: Residual activity (%) at 1 μM, NEK11"}, "EPH-A6 [10]": {"target": "T1, EPH-A6"}, "PDGFR-alpha": {"target": "PDGFR-alpha (Homo sapiens (Human), UniProt P16234)", "assay": "biochemical", "details": "read-out: Residual activity (%) at 1 μM"}, "EPH-A7": {"target": "EPH-A7 (Homo sapiens (Human), UniProt Q15375)", "assay": "biochemical", "details": "read-out: Residual activity (%) at 1 μM"}, "RET [11]": {"target": "T6, RET (Homo sapiens (Human), UniProt P07949)"}, "MAP3K11 [12]": {"target": "T3, MAP3K11", "assay": "biochemical", "details": "read-out: Residual activity (%) at 1 μM, MAP3K11"}, "RET [13]": {"target": "T6, RET", "assay": "biochemical", "details": "read-out: Residual activity (%) at 1 μM, RET"}, "ERBB2": {"target": "ERBB2 (Homo sapiens (Human), UniProt P04626)", "assay": "biochemical", "details": "read-out: Residual activity (%) at 1 μM"}, "EPH-B4": {"target": "EPH-B4 (Homo sapiens (Human), UniProt P54760)", "assay": "biochemical", "details": "read-out: Residual activity (%) at 1 μM"}, "FLT3 [14]": {"target": "T2, FLT3"}, "KIT": {"target": "KIT (Homo sapiens (Human), UniProt P10721)", "assay": "biochemical", "details": "read-out: Residual activity (%) at 1 μM"}}}
{"molecule": "Cc1nc(Nc2ncc(C(=O)Nc3c(C)cccc3Cl)s2)cc(N2CCN(CCO)CC2)n1", "note": "[Compound A8, N-(2-chloro-6-methylphenyl)-2-((6-(4-(2-hydroxyethyl)piperazin-1-yl)-2-methylpyrimidin-4-yl)amino)thiazole-5-carboxamide, reference compound]", "values": [{"measurement": "Percentage unbound (%)", "setting": "human plasma-proteins", "value": 2, "unit": "%"}, {"measurement": "IC50", "setting": "CYP2C8", "value": 12, "unit": "µM"}, {"measurement": "remaining activity at 1 µM", "setting": "ACV-R1B", "value": 10, "unit": "%"}, {"measurement": "remaining activity at 1 µM", "setting": "MAP4K5", "value": 3, "unit": "%"}, {"measurement": "remaining activity at 1 µM", "setting": "TRKB", "value": 100, "unit": "%"}, {"measurement": "remaining activity at 1 µM", "setting": "MYLK2", "value": 91, "unit": "%"}, {"measurement": "remaining activity at 1 µM", "setting": "RPS6KA6", "value": 95, "unit": "%"}, {"measurement": "anti-tumour activity", "setting": "KU812 tumours", "value": "curative"}, {"measurement": "remaining activity at 1 µM", "setting": "p38-alpha", "value": 12, "unit": "%"}, {"measurement": "IC50", "setting": "MC38 cells", "value": "< 100", "unit": "nM"}, {"measurement": "immunosuppressive M2 macrophages (CD206+MHC-II+)", "setting": "[1]", "value": "significantly reduced"}, {"measurement": "terminal / elimination half-life", "setting": "[2]", "value": "3 to 5", "unit": "h"}, {"measurement": "remaining activity at 1 µM", "setting": "TBK1", "value": 86, "unit": "%"}]}
{"molecule": "Cc1nc(Nc2ncc(C(=O)Nc3c(Cl)ccnc3C)s2)cc(N2CCN(CCO)CC2)n1", "note": "[Compound B3, N-(4-chloro-2-methylpyridin-3-yl)-2-((6-(4-(2-hydroxyethyl)piperazin-1-yl)-2-methylpyrimidin-4-yl)amino)thiazole-5-carboxamide]", "values": [{"measurement": "remaining activity at 1 µM", "setting": "EPH-A8", "value": 3, "unit": "%"}, {"measurement": "remaining activity at 1 µM", "setting": "EPH-B2", "value": 15, "unit": "%"}, {"measurement": "remaining activity at 1 µM", "setting": "WNK2", "value": 100, "unit": "%"}, {"measurement": "remaining activity at 1 µM", "setting": "EPH-B3", "value": 3, "unit": "%"}, {"measurement": "remaining activity at 1 µM", "setting": "EPH-A6 [3]", "value": 86, "unit": "%"}, {"measurement": "remaining activity at 1 µM", "setting": "ACV-R1B", "value": 41, "unit": "%"}, {"measurement": "remaining activity at 1 µM", "setting": "BRAF", "value": "~50", "unit": "%"}, {"measurement": "remaining activity at 1 µM", "setting": "EPH-A3", "value": 0, "unit": "%"}, {"measurement": "remaining activity at 1 µM", "setting": "FLT3 [4]", "value": 32, "unit": "%"}, {"measurement": "remaining activity at 1 µM", "setting": "NIK", "value": 100, "unit": "%"}, {"measurement": "remaining activity at 1 µM", "setting": "ACV-R1", "value": 48, "unit": "%"}, {"measurement": "remaining activity at 1 µM", "setting": "MST4", "value": 107, "unit": "%"}, {"measurement": "remaining activity at 1 µM", "setting": "TGFB-R1", "value": 28, "unit": "%"}, {"measurement": "Residual activity (%) at 1 μM", "setting": "MAP3K11 [5]", "value": 61, "unit": "%"}, {"measurement": "remaining activity at 1 µM", "setting": "MAP4K5", "value": 28, "unit": "%"}, {"measurement": "remaining activity at 1 µM", "setting": "EPH-A1", "value": 3, "unit": "%"}, {"measurement": "remaining activity at 1 µM", "setting": "FGF-R2", "value": 74, "unit": "%"}, {"measurement": "remaining activity at 1 µM", "setting": "EPH-A2", "value": 0, "unit": "%"}, {"measurement": "remaining activity at 1 µM", "setting": "p38-beta [6]", "value": 63, "unit": "%"}, {"measurement": "remaining activity at 1 µM", "setting": "EPH-B1", "value": 0, "unit": "%"}, {"measurement": "Residual activity (%) at 1 μM", "setting": "p38-beta [7]", "value": 63, "unit": "%"}, {"measurement": "Residual activity (%) at 1 μM", "setting": "NEK11 [8]", "value": 89, "unit": "%"}, {"measurement": "remaining activity at 1 µM", "setting": "PDGFR-beta", "value": 6, "unit": "%"}, {"measurement": "remaining activity at 1 µM", "setting": "EPH-A5", "value": 1, "unit": "%"}, {"measurement": "remaining activity at 1 µM", "setting": "BMPR1A", "value": 83, "unit": "%"}, {"measurement": "remaining activity at 1 µM", "setting": "EPH-A4", "value": 10, "unit": "%"}, {"measurement": "remaining activity at 1 µM", "setting": "ACV-R2B", "value": 57, "unit": "%"}, {"measurement": "remaining activity at 1 µM", "setting": "p38-alpha", "value": 38, "unit": "%"}, {"measurement": "remaining activity at 1 µM", "setting": "NEK11 [9]", "value": "~90", "unit": "%"}, {"measurement": "Residual activity (%) at 1 μM", "setting": "EPH-A6 [10]", "value": 86, "unit": "%"}, {"measurement": "remaining activity at 1 µM", "setting": "PDGFR-alpha", "value": 18, "unit": "%"}, {"measurement": "remaining activity at 1 µM", "setting": "EPH-A7", "value": 88, "unit": "%"}, {"measurement": "Residual activity (%) at 1 μM", "setting": "RET [11]", "value": 98, "unit": "%"}, {"measurement": "remaining activity at 1 µM", "setting": "MAP3K11 [12]", "value": 61, "unit": "%"}, {"measurement": "remaining activity at 1 µM", "setting": "RET [13]", "value": "~100", "unit": "%"}, {"measurement": "remaining activity at 1 µM", "setting": "ERBB2", "value": 84, "unit": "%"}, {"measurement": "remaining activity at 1 µM", "setting": "EPH-B4", "value": 1, "unit": "%"}, {"measurement": "Residual activity (%) at 1 μM", "setting": "FLT3 [14]", "value": 32, "unit": "%"}, {"measurement": "remaining activity at 1 µM", "setting": "KIT", "value": 5, "unit": "%"}]}
